Key:
S1P1 receptor = S1P1 receptor (Homo sapiens, UniProt P21453); experiment: S1P1 receptor agonistic activity (PathHunter cell strain, chemiluminescent signal detection); type: cell-based; details: read-out: S1P1 receptor agonistic activity; PathHunter cells, agonist mode, 37° C. 90-180 minutes
Procedure: Test Method: […] Cell Processing i) Thaw the PathHunter cell strain according to the standard procedures. ii) Seed the cell in the 20 μL 384-microwell plate and incubate at 37° C. for an appropriate period. 2. Agonist i) For agonist testing, cells were incubated with the sample to be test to initiate a reaction; ii) The stock solution to be tested has been diluted 5 folds to be a buffer solution; iii) Inject the 5-fold diluted solution (5 μL) into the cells and incubate at 37° C. for 90-180 minutes. […] 3. Signal Detection i) Add 12.5 μL or 15 μL PathHunter detection reagent (50 vol. %) in one portion. Then, incubate at room temperature for 1 hour and generate the detection signal; ii) Use PerkinElmer Evision™ instrument to read the microwell plate to proceed with chemiluminescent signal detection. 4. Data Analysis i) Use CBIS data analysis system for the compound activity analysis. ii) Calculation formula: […]

The chains behind the UniProt entries cited, without tags or fusion partners.
UniProt P21453, whole entry: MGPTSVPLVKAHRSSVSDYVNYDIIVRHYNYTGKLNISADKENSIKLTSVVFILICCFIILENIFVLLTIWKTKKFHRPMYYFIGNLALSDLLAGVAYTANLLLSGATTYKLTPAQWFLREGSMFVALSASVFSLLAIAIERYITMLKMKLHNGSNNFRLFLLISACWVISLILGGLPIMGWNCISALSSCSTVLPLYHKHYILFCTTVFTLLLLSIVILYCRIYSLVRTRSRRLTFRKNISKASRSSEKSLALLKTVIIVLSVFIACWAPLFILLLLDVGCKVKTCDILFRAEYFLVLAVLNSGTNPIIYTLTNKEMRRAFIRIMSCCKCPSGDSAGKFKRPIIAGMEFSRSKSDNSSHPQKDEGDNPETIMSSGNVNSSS

[1] = Evaluation of compound pharmacokinetics in SD rats (intravenous injection and oral administration); type: in vivo, Sprague Dawley rats; details: 3 mpk
Procedure: Aim of the experiments: To test pharmacokinetics of the compounds in SD rats. Experimental Materials: Sprague Dawley rats (male, 200-300 g, 7-9 weeks old, Shanghai Slack) Experimental Procedure: The rodent pharmacokinetic characteristics of the compounds after intravenous injection and oral administration were tested by the standard protocol. In the experiments, the transparent solution was prepared with the compounds to be test. The rats were administered single intravenous injection and oral administration. The solvent for intravenous injection and oral administration was aqueous hydroxypropyl β-cyclodextrin solution or normal saline solution with a certain concentration. Collect the blood samples within 24 hours and centrifuge at 3000 G for 15 minutes. Separate the supernatant to obtain the plasma samples. A volume of acetonitrile solution containing internal standard was added 4 times as the sample to precipitate the protein. The supernatant was obtained after centrifuge. An equal volume of water was added and then centrifuge again to collect the supernatant. The LC-MS/MS method was used to quantitatively analyze the blood drug concentration and the pharmacokinetic parameters such as peak concentration, peak time, clearance rate, half-life period, area under the curve of the drug concentration, and fraction of bioavailability, etc. were calculated.

| Structure (SMILES) | EC50 (S1P1 receptor) | Clearance rate [1] | Drug concentration integral: AUC [1] | Fraction of bioavailability: F [1] | Half-life period: T1/2 [1] |
| --- | --- | --- | --- | --- | --- |
| CC(C)Oc1ccc(-c2nc(-c3cccc4c3CC3CC(=O)N(CC(=O)O)C43)no2)cc1C#N (stereo not shown) | < 10 nM | – | – | – | – |
| CC(C)Oc1ccc(-c2noc(-c3cccc4c3C[C@@H]3CC(=O)N(CCO)[C@H]43)n2)cc1C#N | < 10 nM | – | – | – | – |
| CC(C)Oc1ccc(-c2nc(-c3cccc4c3CC3CC(=O)N(CCO)C43)no2)cc1C#N (single isomer, unassigned) | – | 44.3 mL/min/kg | 1.114 µM·h | 42.8% | 1.48 h |
| CC(C)Oc1ccc(-c2nc(-c3cccc4c3C[C@@H]3CC(=O)N(CCO)[C@H]43)no2)cc1C#N (single isomer, unassigned) | – | – | 6.825 µM·h | – | – |

Source: patent publication US20210300908A1, “S1P1 AGONIST AND APPLICATION THEREOF” (SHIJIAZHUANG SAGACITY SRUG SEVELOPMENT CO., LTD., priority 2016, published 2021)
